We go through six molecules from US9868748B2, “Thiazolopyrrolidine inhibitors of ROR- γ” (Vitae Pharmaceuticals, Inc., priority 2013, dated 2018).

Sequences of proteins named here, by UniProt entry; tags and fusion partners are left off. A line that says so, or that is headed by a name, gives the form on record, which may keep a tag or linker. Residues count along the entry.
UniProt P51449, 269-508 limits assumed: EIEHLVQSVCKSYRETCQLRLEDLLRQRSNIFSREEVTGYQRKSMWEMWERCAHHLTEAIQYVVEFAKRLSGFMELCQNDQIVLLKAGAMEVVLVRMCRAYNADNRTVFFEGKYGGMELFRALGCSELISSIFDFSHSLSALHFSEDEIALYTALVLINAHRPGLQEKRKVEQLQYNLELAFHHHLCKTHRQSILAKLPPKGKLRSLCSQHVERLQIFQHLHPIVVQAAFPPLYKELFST
UniProt P51449, 25-518 with tags or gaps limits assumed: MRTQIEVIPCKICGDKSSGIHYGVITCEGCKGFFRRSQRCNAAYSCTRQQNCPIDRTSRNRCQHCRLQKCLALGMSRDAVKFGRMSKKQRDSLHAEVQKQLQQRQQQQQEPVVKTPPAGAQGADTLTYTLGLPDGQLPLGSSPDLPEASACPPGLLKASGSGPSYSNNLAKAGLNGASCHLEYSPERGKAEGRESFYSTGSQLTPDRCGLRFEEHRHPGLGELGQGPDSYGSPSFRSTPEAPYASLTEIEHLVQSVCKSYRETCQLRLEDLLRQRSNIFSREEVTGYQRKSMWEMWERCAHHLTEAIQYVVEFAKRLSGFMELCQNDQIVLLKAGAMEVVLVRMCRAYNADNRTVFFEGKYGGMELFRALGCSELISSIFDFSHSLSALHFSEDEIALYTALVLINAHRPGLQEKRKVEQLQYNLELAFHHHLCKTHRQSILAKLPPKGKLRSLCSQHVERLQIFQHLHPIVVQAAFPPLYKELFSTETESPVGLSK

Each structure is given as a SMILES string. pIC50, pKi: −log10 of the molar value. Where two headings read alike, the source gives them in different places.

By pKi is commonly meant the Ki on a negative log10 scale, so that one unit is a factor of ten. The pIC50 is the negative decadic logarithm of the IC50, by convention in mol/L.

Experiment [1] has as its target recombinant RORγ Ligand Binding Domain (LBD) protein (Homo sapiens (Human), UniProt P51449). Briefly: Radio-Ligand RORγ Binding Assay (Assay 1). Conditions: read-out: RORγ Binding Ki Range*, competition with 25-hydroxy [26,27-3H]-cholesterol, SPA.
Experiment [2] deals with full-length RORγt in Jurkat cells (Homo sapiens (Human), UniProt P51449). Briefly: RORγt 5xRORE Assay in Jurkat Cells (Assay 2).
[3] abbreviates: read-out: RORγt5X IC50 Range*, Nanoluc luciferase reporter, 16-18 hrs, Table 8.

Turning to `CC(C)[C@H]1c2nc(NC(=O)CN3CCC(S(C)(=O)=O)CC3)sc2CN1Cc1ccc(Cl)cc1`, the pKi in experiment [1] (Table 9) is 6.00 to 7.00.

In the case of `CCS(=O)(=O)c1ccc(CC(=O)Nc2nc3c(s2)CN(Cc2ccc(OC(F)(F)F)cc2Cl)[C@H]3C(C)C)nc1`, the pIC50 in experiment [2] (setting [3]) was above 7.00. Also, the pKi in experiment [1] (Table 8) is above 7.00.

In the case of `CCS(=O)(=O)c1ccc(CC(=O)Nc2nc3c(s2)CN(Cc2ccc(C(F)(F)F)c(Cl)c2)[C@H]3C(C)C)nc1`, the pIC50 in experiment [2] (setting [3]) is above 7.00. For the same molecule, the pKi in experiment [1] (Table 8) is above 7.00.

Regarding `CCS(=O)(=O)c1ccc(CC(=O)Nc2nc3c(s2)CN(Cc2ccc(Cl)cc2)[C@H]3C(C)C)cc1`, the pIC50 in experiment [2] (setting [3]) was above 7.00.

For `C=C(C(=O)Nc1nc2c(s1)CN(Cc1ccc(OC(F)F)cc1)[C@H]2C(C)C)c1ccc(S(=O)(=O)CC)cc1`, the pIC50 in experiment [2] (read-out: RORγt5X IC50 Range*, Nanoluc luciferase reporter, 16-18 hrs, Table 9) was above 7.00. In addition, in experiment [1] (Table 9), the pKi was above 7.00.

On to `Cc1cc(CN2Cc3sc(NC(=O)Cc4ccc(S(C)(=O)=O)cc4)nc3[C@@H]2C(C)C)ncc1Cl`, for which the pIC50 in experiment [2] (setting [3]) was above 7.00. The pKi in experiment [1] (Table 8) was above 7.00.
